Screening data deposited in PubChem by several laboratories.
ABCB6 inh MLPCN: ABCB6 transporter inhibitors, primary screen, K562-ABCB6 cells, flow cytometry, MLPCN library; fluorescence ratio to DMSO, % at 10 µM; actives 0.19% (n = 360,000); K562-ABCB6 porphyrin accumulation, 1 h; hits give low values;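 active = fluorescence ratio to DMSO below 75%, the collection mean minus 3 SD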;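 note: signal is porphyrin accumulated inside mitochondria; lower ratio means ABCB6 inhibition with less porphyrin fluorescence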
UUG fidelity: modulators of start codon recognition fidelity in yeast; AID 602363; activity score, % at 18.7 µM; S. cerevisiae UUG-firefly luciferase reporter, luminescence/redox ratio; 0.13% of 350,000 active;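 active = replicate mean at a twofold rise or more, about +100% in these data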;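 note: firefly luciferase made from a UUG start codon reports start codon fidelity; reporter light over untreated wells divided by growth signal over untreated wells; some hits fall short of that in this replicate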
Granule exo inh: LAMP-1 surface exposure blockers, TALL-104 cells – cell-based, flow cytometry, MLPCN library, primary screen | TALL-104 LAMP-1 surface exposure; cells stimulated with thapsigargin and PMA | inhibition, % at 10 µM | actives 0.66% (n = 360,000) | AID 651702, 2012;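 active = inhibition above about 55%, limit read from the data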
PKA-R1A act: activators of PKA-R1A holoenzyme, primary screen, biochemical, fluorescence polarization, Cy5-IP20, bovine R1A, mouse PKAc; PKA-R1A dissociation; scaled: DMSO 0%, 113 µM cGMP 100%; activation, % at 11.4 µM; actives 0.083% (n = 340,000); AID 504707, 2011;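 active = percent activation above the mean of all tested compounds plus 3 SD, cut at about 19% in these data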;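 note: higher means more PKAc released from R1A so a rise in polarization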
PKA-R2B activ: activators of PKA-R2B holoenzyme, primary screen, biochemical, fluorescence polarization, Cy5-IP20, human | cAMP-dependent protein kinase catalytic subunit beta (Homo sapiens) + cAMP-dependent … | PKA-R2B holoenzyme dissociation; R2B truncated from residue 108, S112A mutant; 0% DMSO only, 100% 113 µM cGMP | activation, % at 11.4 µM | actives 0.079% (n = 340,000);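 active = activation above a cutoff set at the mean over all compounds plus 3 SD, cut at about 18% in these data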;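 note: higher means more holoenzyme dissociation and a rise in polarization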
pCIP destab: p/CIP-EGFP fusion destabilizers, primary screen, fluorescence, F442A cells | 16 h | decrease of EGFP signal, % at 10 µM | actives 0.01% (n = 290,000);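 active = EGFP signal decrease of at least 30% at 10 µM or well 3 SD below plate mean, unless failing retest; inactive = the rest, including hits failing retest or dose response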
ABCB6 blocker 1: ABCB6 transporter inhibitors, confirmation, K562-ABCB6 cells, flow cytometry, cherry pick 1; shares compounds with ABCB6 inh MLPCN; 700 tested, under 10 active; ratio response (% of DMSO), % at 10 µM; K562-ABCB6 porphyrin accumulation, 1 h; hits give low values; AID 602430, 2012;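 active = repeat-averaged ratio response below 75% of DMSO, the collection mean minus 3 SD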;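 note: median porphyrin fluorescence at 575 nm with 488 nm excitation from mitochondria; lower ratio means less porphyrin signal so ABCB6 inhibition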
K562 vector FC: empty-vector K562 compound effect – cell-based, flow cytometry, cherry pick set 2, counter-screen for ABCB6 inhibitor project, dose response | shares compounds with ABCB6 inh MLPCN | K562 empty-vector cells, flow cytometry fluorescence, 1 h | percent response (fluorescence), % at 100 µM | 25 tested, under 10 active | AID 624484, 2012;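 active = compounds whose half-maximal effective concentration is below 100 µM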
Hits are given with their value; . = inactive; / = no result. Most compounds without a hit are left out; they make up all but 0.94% or so of the library.

SMILES	ABCB6 inh MLPCN	UUG fidelity	Granule exo inh	PKA-R1A act	PKA-R2B activ	pCIP destab	ABCB6 blocker 1	others
CC(=O)c1cccc(-c2ccnc3c2CC(C(=O)Nc2ccc4c(c2)OCO4)O3)c1 (stereo not drawn)	.	.	.	/	/	/	.
CC(=O)Nc1ccc(-c2ccnc3c2CC(C(=O)Nc2ccc4c(c2)OCO4)O3)cc1 (stereo not drawn)	.	.	.	/	/	/	/
O=C(Nc1cccc(C(F)(F)F)c1)C1Cc2c(-c3ccco3)ccnc2O1 (stereo not drawn)	.	.	.	/	/	/	/
O=C(Nc1cccnc1)C1Cc2c(-c3ccco3)ccnc2O1 (stereo not drawn)	74	.	.	/	/	/	.
CC(C)CC#Cc1ccc2c(c1)O[C@@H](CN(C)Cc1ccccc1F)[C@@H](C)CN([C@@H](C)CO)S2(=O)=O	/	.	/	/	/	/	/
COCCOC(=O)N1C(=O)[C@@]2(c3ccccc31)[C@H](c1ccccc1OCCO)N1[C@H](c3ccccc3)[C@H](c3ccccc3)OC(=O)[C@H]1[C@@H]2C(=O)N1CCCCCCC1	/	.	/	/	/	/	/
CCOc1ccc(S(=O)(=O)N2CCN(C(=O)c3cc(S(=O)(=O)N4CCOCC4)ccc3C)CC2)cc1	68	.	.	.	.	/	.
CC(C)NC(=O)N(C)C[C@H]1Oc2cc(C#CC(C)(C)O)ccc2S(=O)(=O)N([C@H](C)CO)C[C@@H]1C	/	.	/	/	/	/	/
Cc1ccc(-c2nc3s/c(=C\c4ccco4)c(=O)n3n2)cc1	70	.	.	.	.	.	.
CCCNC(=O)N1C[C@H]2[C@@H](c3ccccc31)[C@H](CO)N2Cc1ccc(OC)cc1	/	.	/	/	/	/	/
O=C(c1ccccc1)C(C(=O)N1CCc2ccccc2C1)n1ccccc1=O (stereo not drawn)	73	.	.	.	.	.	.
C[C@@H]1CCCCO[C@@H](CN(C)Cc2ccncc2)[C@@H](C)CN([C@@H](C)CO)C(=O)c2cc(NS(=O)(=O)c3cn(C)cn3)ccc2O1	/	.	/	/	/	/	/
Cc1ccc(Nc2nc(-c3cccnc3)nc3ccccc23)cc1	71	.	.	.	.	.	.
Cc1ccc2oc(=O)c3cnn(CC(=O)NCCc4ccsc4)c3c2c1	54	.	.	.	.	.	.
O=c1c2c(-c3cccs3)csc2ncn1-c1ccccc1	47	.	.	.	.	.	.
CCSc1nc(C)c(C)c(=O)[nH]1	72	.	.	.	.	.	.
C[C@H](CO)N1C[C@H](C)[C@@H](CN(C)S(=O)(=O)c2ccc(Cl)cc2)OCCCC[C@H](C)Oc2ccc(NS(C)(=O)=O)cc2C1=O	/	.	/	/	/	/	/
O=C(c1ccco1)N1CCC(c2nc3c(nnn3Cc3c(Cl)cccc3Cl)c(=O)[nH]2)CC1	.	.	.	.	.	.	.
CC(C)(C)c1ccc(Cn2nnc3c(=O)[nH]c(C4CCN(C(=O)c5ccco5)CC4)nc32)cc1	.	.	.	.	.	.	.
O=C(C[C@H]1C[C@H]2c3cc(NC(=O)NC4CCCCC4)ccc3O[C@H]2[C@@H](CO)O1)NCc1ccccc1	/	.	/	/	/	/	/
COc1cccc(CNC(=O)C[C@H]2CC[C@@H](NC(=O)C3CCOCC3)[C@@H](CO)O2)c1	/	.	/	/	/	/	/
N#Cc1ccccc1NC(=O)c1ccc2c(Cl)c3c(nc2c1)CCCC3	.	.	.	.	.	.	/
CC(=O)c1cccc(NC(=O)c2ccc3c(Cl)c4c(nc3c2)CCCC4)c1	73	/	.	.	.	.	.
C[C@@H]1CN([C@@H](C)CO)C(=O)c2cc(C3=CCCC3)cnc2O[C@@H]1CN(C)C(=O)c1ccccn1	/	.	/	/	/	/	/
Cc1nn2c(N3CCN(C4CCCC4)CC3)cc(C(C)(C)C)nc2c1-c1ccccc1	57	.	.	.	.	.	.
SMILES	ABCB6 inh MLPCN	UUG fidelity	Granule exo inh	PKA-R1A act	PKA-R2B activ	pCIP destab	ABCB6 blocker 1	others
Cc1nn2c(N3CCN(C)CC3)cc(C(C)(C)C)nc2c1-c1ccccc1	.	.	.	.	.	.	/
Cc1nn(CCC#N)c(N)c1C1(O)C(=O)Nc2c(Cl)cc(Cl)cc21 (stereo not drawn)	13	.	.	.	.	.	.
C[C@H](CO)N1C[C@H](C)[C@H](CN(C)CC2CC2)Oc2cc(C#CC3CC3)ccc2S1(=O)=O	/	.	/	/	/	/	/
Cc1ccc(CC2CC(=O)N(CCc3ccc4c(c3)OCO4)C2=O)cc1 (stereo not drawn)	74	.	.	.	.	.	.
COc1cccc(CC2CC(=O)N(CCc3ccc4c(c3)OCO4)C2=O)c1 (stereo not drawn)	.	.	.	.	.	.	/
CC(C)c1ccc(OCC(=O)Nc2ccc(OC(F)(F)F)cc2)cc1	63	.	.	.	.	.	.
CC(C)c1ccc(NC(=O)COc2ccccc2)cc1	.	.	.	.	.	.	/
C[C@H]1CN([C@@H](C)CO)C(=O)c2cc(-c3ccccc3F)cnc2O[C@@H]1CN(C)C(=O)NC1CCCC1	/	.	/	/	/	/	/
O=C(NCc1ccccc1)c1nc(S(=O)(=O)Cc2ccccc2)ncc1Cl	.	.	.	.	.	.	/
Cc1nnc(NC(=O)c2nc(S(=O)(=O)Cc3ccccc3C)ncc2Cl)s1	.	.	.	.	.	.	/	K562 vector FC=.
CCc1nnc(NC(=O)c2nc(S(=O)(=O)Cc3ccc(C)cc3)ncc2Cl)s1	.	.	.	.	.	.	/	K562 vector FC=.
CCOc1ccccc1NC(=O)c1nc(S(=O)(=O)Cc2cccc(C)c2)ncc1Cl	41	.	.	.	.	.	/	K562 vector FC=.
CC(C)c1nnc(NC(=O)c2nc(S(=O)(=O)Cc3ccccc3F)ncc2Cl)s1	/	/	/	/	/	.	/
CC(C)c1nnc(NC(=O)c2nc(S(=O)(=O)Cc3ccc(F)cc3)ncc2Cl)s1	.	.	.	.	.	.	/	K562 vector FC=.
C[C@@H]1CN([C@@H](C)CO)C(=O)c2cc(NS(=O)(=O)c3cn(C)cn3)ccc2O[C@@H](C)CCCCO[C@H]1CN(C)C(=O)CCC(F)(F)F	/	.	/	/	/	/	/
